In the assay the test system is E. granulosus PSCs. The assay can be described thus: microbe, parasite or virus in culture. Particulars: Echinococcus granulosus; for killing at 0.5 µM / killing at 2 µM / killing at 10 µM / killing at 50 µM: 72 h.
The mark [1] stands for this setting: read-out: Anti-echinococcus activity % of death, 0.5uM.
Where [2] appears, read: read-out: Anti-echinococcus activity % of death, 2uM.
The mark [3] stands for this setting: read-out: Anti-echinococcus activity % of death, 10uM.
Where [4] appears, read: read-out: Anti-echinococcus activity % of death, 50uM.
The mark [5] stands for this setting: read-out: Anti-echinococcus activity % of death.

Where a name gives a salt, the structure may show the parent alone. Read-outs that look alike come from different tables or passages of the source.

Turning to `O=c1c2ccccc2c(Cc2ccc(Cl)cc2)nn1C[C@H]1CCCN1CCCCc1ccc(OCCCN2CCCCCC2)cc1` [GSK-1004723D], the mortality at 0.5 µM under setting [1] was found to be 0%. For the same molecule, the mortality at 2 µM under setting [2] was 0%. Further, the mortality at 10 µM under setting [3] was 0%. Further, the mortality at 50 µM under setting [4] was 100%.

Turning to `NC[C@@](O)(c1ccc(Cl)cc1)c1ccc(-c2cn[nH]c2)cc1` [AT-13148], the mortality at 0.5 µM under setting [1] came to 0%. For the same molecule, the mortality at 2 µM under setting [2] was determined as 0%. The mortality at 10 µM under setting [3] came to 0%. Further, the mortality at 50 µM under setting [4] turned out to be 100%.

Take `CCOC(=O)C(C)(C)CCCCOc1ccc(OCCCCCn2ccnc2)cc1` [YM-534]: under setting [1], the mortality at 0.5 µM turned out to be 0%. Further, the mortality at 2 µM under setting [2] was determined as 0%. Under setting [3], the mortality at 10 µM stood at 0%. Besides, the mortality at 50 µM under setting [4] turned out to be 100%.

`CN(C)CCC1CCc2cc(OCc3ccc(-c4ccccc4)cc3)ccc2C1` (stereo not shown) [TAK-070]: under setting [5], the mortality at 0.5 µM is 0%, the mortality at 2 µM was 0%, the mortality at 10 µM came to 0% and the mortality at 50 µM stood at 100%.

As for `Cc1cc(-c2cc(O)ccc2Cl)cc2nnc(Nc3ccc(OCCN4CCCC4)cc3)nc12` [TG 100572 (Hydrochloride)], the mortality at 0.5 µM under setting [1] came out at 0%. The mortality at 2 µM under setting [2] came out at 0%. Also, the mortality at 10 µM under setting [3] is 100%. Under setting [4], the mortality at 50 µM worked out at 100%.

Take `C1CCC(C(CC2CCCCN2)C2CCCCC2)CC1` (stereo not shown) [PERHEXILINE]: the mortality at 0.5 µM under setting [1] came out at 0%. Also, the mortality at 2 µM under setting [2] came to 0%. For the same molecule, the mortality at 10 µM under setting [3] amounted to 0%. In addition, the mortality at 50 µM under setting [4] came out at 100%.

On to `Cc1cc(C(=O)Nc2cc(Nc3ccc4c(/C=C/c5ccccn5)n[nH]c4c3)ccc2F)n(C)n1` [AG-13958], for which, under setting [1], the mortality at 0.5 µM worked out at 0%. Besides, the mortality at 2 µM under setting [2] came out at 0%. The mortality at 10 µM under setting [3] was 50%. The mortality at 50 µM under setting [4] came out at 100%.

Consider `Cc1ccc(C(=O)N(CCCN)[C@@H](c2oc3cc(Cl)ccc3c(=O)c2Cc2ccccc2)C(C)C)cc1` [SB-743921], for which, where the note is “read-out: Anti-echinococcus activity % of death, 0.5uM, E. granulosus PSCs, compound at 0.5uM”, the mortality at 0.5 µM stood at 0%. For the same molecule, the mortality at 2 µM (read-out: Anti-echinococcus activity % of death, 2uM, E. granulosus PSCs, compound at 2uM) came to 0%. For the same molecule, the mortality at 10 µM (read-out: Anti-echinococcus activity % of death, 10uM, E. granulosus PSCs, compound at 10uM) was found to be 0%. The mortality at 50 µM (read-out: Anti-echinococcus activity % of death, 50uM, E. granulosus PSCs, compound at 50uM) came out at 100%.

With `CNc1ccc2oc(C[C@H]3O[C@@]4(CC[C@H]3C)O[C@H]([C@H](C)C(=O)c3ccc[nH]3)[C@H](C)C[C@H]4C)nc2c1C(=O)O` [Calcimycin, reference compound], under “read-out: Anti-echinicoccus activity, Dose confirmaiton 0.5uM”, the killing at 0.5 µM was determined as 0%. The killing at 2 µM (read-out: Anti-echinicoccus activity, Dose confirmaiton 2uM) worked out at 0%. For the same molecule, the killing at 10 µM (read-out: Anti-echinicoccus activity, Dose confirmaiton 10uM) is 100%. For the same molecule, the killing at 50 µM reads like this: (read-out: Anti-echinicoccus activity, Dose confirmaiton 50uM) 100%; (read-out: Anti-echinicoccus activity, Initiate hits 50uM) 74%. Further, the mortality at 0.5 µM under setting [1] came out at 0%. Further, the mortality at 2 µM under setting [2] stood at 70%. Besides, the mortality at 10 µM under setting [3] turned out to be 100%. Besides, the mortality at 50 µM under setting [4] worked out at 100%.

Take `C[n+]1cc2c3c(ccc2c2ccc4cc5c(cc4c21)OCO5)OCO3` [Sanguinarine chloride, reference compound]: where the note is “read-out: Anti-echinicoccus activity, Dose confirmaiton 0.5uM, second-stage dose-response, 0.5 μM, PSCs”, the killing at 0.5 µM was 0%. Also, under “read-out: Anti-echinicoccus activity, Dose confirmaiton 2uM, second-stage dose-response, 2 μM, PSCs”, the killing at 2 µM came out at 0%. Moreover, under “read-out: Anti-echinicoccus activity, Dose confirmaiton 10uM, second-stage dose-response, 10 μM, PSCs”, the killing at 10 µM came out at 100%. Moreover, the killing at 50 µM stood at 100% (read-out: Anti-echinicoccus activity, Dose confirmaiton 50uM, second-stage dose-response, 50 μM, PSCs) and 100% (read-out: Anti-echinicoccus activity, Initiate hits 50uM, primary screen, 50 μM, PSCs, 3-day incubation, PI staining (death rate of PSCs)).

For the molecule `CCCCCCCCNC(=O)/C(C#N)=C\c1c(C)n(CCCN(C)C)c2ccccc12` [Anisina], under setting [1], the mortality at 0.5 µM was determined as 0%. Besides, the mortality at 2 µM under setting [2] was found to be 0%. Further, under setting [3], the mortality at 10 µM was found to be 0%. In addition, the mortality at 50 µM under setting [4] was found to be 100%.

For the molecule `CN1CCN(c2ccccc2/C=C2\SCCN(c3ccc(Cl)c(Cl)c3)C2=O)CC1` [ELZASONAN], under setting [5], the mortality at 0.5 µM turned out to be 0%, the mortality at 2 µM was found to be 0%, the mortality at 10 µM came out at 0% and the mortality at 50 µM is 100%.

Consider `OC(CNCC(O)C1CCc2cc(F)ccc2O1)C1CCc2cc(F)ccc2O1` (stereo not shown) [nebivolol hydrochloride], for which the mortality at 0.5 µM under setting [1] is 0%. In addition, the mortality at 2 µM under setting [2] was 0%. The mortality at 10 µM under setting [3] worked out at 0%. The mortality at 50 µM under setting [4] turned out to be 100%.

The values above are taken from paper PMC11370232, “Repurposing of a library for high-content screening of inhibitors against Echinococcus granulosus” (Parasites & Vectors, 2024).
